Data taken from ChEMBL document CHEMBL1128690, “Design of potent non-thiourea H3-receptor histamine antagonists” (J Med Chem, 1995).

Chains of the proteins cited; added tags and fusions are not shown. Lines headed by an entry give the natural chain unless they say otherwise; changes in a name come on top.
UniProt Q9QYN8: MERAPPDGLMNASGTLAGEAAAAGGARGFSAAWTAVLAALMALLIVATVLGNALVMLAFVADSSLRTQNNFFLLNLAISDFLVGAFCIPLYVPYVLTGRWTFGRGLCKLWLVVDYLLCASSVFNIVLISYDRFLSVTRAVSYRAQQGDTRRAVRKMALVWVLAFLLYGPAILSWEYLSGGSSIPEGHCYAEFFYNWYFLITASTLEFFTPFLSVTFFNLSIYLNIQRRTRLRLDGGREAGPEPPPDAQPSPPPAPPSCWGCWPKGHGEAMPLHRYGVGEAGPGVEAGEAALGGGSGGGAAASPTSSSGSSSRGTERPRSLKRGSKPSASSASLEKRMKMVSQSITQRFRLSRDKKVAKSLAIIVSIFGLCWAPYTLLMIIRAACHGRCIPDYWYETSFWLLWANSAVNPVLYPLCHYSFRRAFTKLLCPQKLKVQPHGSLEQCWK

Target: Histamine H3 receptor (Rattus norvegicus, UniProt Q9QYN8)
Assay: In vitro antagonism of the histamine H3-receptor in the rat cerebral cortex.
Type: functional, tissue-based

SMILES: Nc1ccc(NCCc2c[nH]cn2)nc1
- Ki: 186 nM
